Values quoted from earlier work as cited in paper PMC12198292, “Advancing in vitro assessment of iodide uptake inhibition: integrating a novel biotransformation pretreatment step” (Archives of Toxicology, 2025).

Set-up: method as in PubChem https://pubchem.ncbi.nlm.nih.gov/
Settings: ref PubChem https://pubchem.ncbi.nlm.nih.gov/; cited from earlier work

NC(=O)N1c2ccccc2C=Cc2ccccc21 [CBZ, Carbamazepine, reference compound]
log Kow: 2.45
